Values quoted from earlier work as cited in patent publication US5679673A (priority 1994, dated 1997).

Tested on: kappa opioid receptors
Settings: cited from earlier work

## CN(C(=O)Cc1ccc(Cl)c(Cl)c1)[C@@H]1CCCC[C@H]1N1CCCC1 (relative stereo)
  kappa opioid receptor ligand: highly selective ligands for kappa opioid receptors
